Test [1] relates to BGLT3-knockdown HUDEP-2 cells. The experiment in a line: RT-qPCR of BGLT3, β- and γ-globin in BGLT3-knockdown HUDEP-2 cells. Particulars: 4 days. It is filed as cell-based, human. The method, then:
(§1) Total cellular RNA was prepared using the Tissue Total RNA Mini Kit (FAVORGEN), and cDNA was synthesized using ReverTra Ace Master Mix (TOYOBO). Expression of target genes was analyzed using THUNDERBIRD SYBR qPCR Mix (TOYOBO) on a CFX Connect Real Time System (Bio-Rad). The qPCR data were acquired on CFX Maestro (Bio-Rad). Primers are listed in Supplementary Table 10. GAPDH was used as a reference. Primers were purchased from INTEGRATED DNA TECHNOLOGIES or FASMAC.
Retroviral infection was used as previously described to establish cell lines stably expressing BGLT3 and transfected with the pCX4-pur vector, as well as knockdown cell lines transfected with the pSUPER vector[58]. Briefly, retroviruses were produced by transfecting PLAT-E cells with pCX4-pur-BGLT3 or pSUPER-ctrl, pSUPER-BGLT3, or pSUPER-G9a using 5 μg/mL polyethylenimine MAX (PEI MAX, Polysciences). Two days after transfection, the culture supernatant was collected and filtered through a 0.45-μm filter (Millipore) and used for infection with 8 μg/mL polybrene (Sigma). Forty-eight hours after infection, the infected cells were selected with 0.2 μg/mL puromycin (InvivoGen). The clonal puromycin-resistant cells were established via limiting dilution. The desired clones were confirmed by western blotting or qPCR.

A further test concerns HUDEP-2 cells. The experiment in a line: RNA-seq analysis of HUDEP-2 cells. It is filed as cell-based, human. The method, then: Total RNAs were extracted using an RNeasy Plus Mini Kit (QIAGEN). RNA-seq experiments were performed by GENEWIZ or Rhelixa. Gene Ontology (GO) analysis in Supplementary Fig. 7a, the statistical test was performed by Wallenius in goseq software. In Supplementary Tables 8(1-3), the statistical test (adjp) was determined using multiple comparisons analysis, Benjamini-Hochberg adjusted FDR test of the default of AltAnalyze (Ver. 2.0).

In test [2] the test system is α-, β-, εy-, and βh1-globin mRNA in peripheral blood. In words: Globin mRNA levels in peripheral blood of treated mice. In kind it is in vivo. Particulars: mouse peripheral blood. Here is the method: as §1
C57BL/6 mice (6–8 weeks old, female, six mice/group) were purchased from Tokyo Laboratory Animals Science. The mice were fed a standard laboratory diet and housed in a temperature-controlled room under specific pathogen-free conditions. A combination anesthetic was prepared with 0.3 mg/kg medetomidine, 4.0 mg/kg midazolam, and 5.0 mg/kg butorphanol.
Mice were injected intraperitoneally with 0, 20, or 50 mg/kg RK-701 for 5 consecutive days, followed by 2 days off. The dosing solution contained 15% DMSO, 17.5% Cremophor EL, 8.75% EtOH, 8.75% HCO-40, and 50% PBS. Blood samples were collected once a week by Retro Orbital Sampling (75 μL Calibrated Micropipette; Drummond Scientific Company) during isoflurane anesthesia. Blood RNA was extracted using NucleoSpin RNA Blood (Takara Bio Inc.). The weight of each mouse was measured every 3 or 4 days.

In test [3] the test system is BGLT3 RNA in HUDEP-2 cells. The experiment in a line: RT-qPCR of BGLT3 in HUDEP-2 cells. In kind it is cell-based, human. Particulars: HUDEP-2, 4 days. The method, then: as §1
The next test concerns the target T1, NSD2 (T1150A) (Homo sapiens, UniProt O96028, T1150A).
T1 sequence (O96028 1-1365 T1150A): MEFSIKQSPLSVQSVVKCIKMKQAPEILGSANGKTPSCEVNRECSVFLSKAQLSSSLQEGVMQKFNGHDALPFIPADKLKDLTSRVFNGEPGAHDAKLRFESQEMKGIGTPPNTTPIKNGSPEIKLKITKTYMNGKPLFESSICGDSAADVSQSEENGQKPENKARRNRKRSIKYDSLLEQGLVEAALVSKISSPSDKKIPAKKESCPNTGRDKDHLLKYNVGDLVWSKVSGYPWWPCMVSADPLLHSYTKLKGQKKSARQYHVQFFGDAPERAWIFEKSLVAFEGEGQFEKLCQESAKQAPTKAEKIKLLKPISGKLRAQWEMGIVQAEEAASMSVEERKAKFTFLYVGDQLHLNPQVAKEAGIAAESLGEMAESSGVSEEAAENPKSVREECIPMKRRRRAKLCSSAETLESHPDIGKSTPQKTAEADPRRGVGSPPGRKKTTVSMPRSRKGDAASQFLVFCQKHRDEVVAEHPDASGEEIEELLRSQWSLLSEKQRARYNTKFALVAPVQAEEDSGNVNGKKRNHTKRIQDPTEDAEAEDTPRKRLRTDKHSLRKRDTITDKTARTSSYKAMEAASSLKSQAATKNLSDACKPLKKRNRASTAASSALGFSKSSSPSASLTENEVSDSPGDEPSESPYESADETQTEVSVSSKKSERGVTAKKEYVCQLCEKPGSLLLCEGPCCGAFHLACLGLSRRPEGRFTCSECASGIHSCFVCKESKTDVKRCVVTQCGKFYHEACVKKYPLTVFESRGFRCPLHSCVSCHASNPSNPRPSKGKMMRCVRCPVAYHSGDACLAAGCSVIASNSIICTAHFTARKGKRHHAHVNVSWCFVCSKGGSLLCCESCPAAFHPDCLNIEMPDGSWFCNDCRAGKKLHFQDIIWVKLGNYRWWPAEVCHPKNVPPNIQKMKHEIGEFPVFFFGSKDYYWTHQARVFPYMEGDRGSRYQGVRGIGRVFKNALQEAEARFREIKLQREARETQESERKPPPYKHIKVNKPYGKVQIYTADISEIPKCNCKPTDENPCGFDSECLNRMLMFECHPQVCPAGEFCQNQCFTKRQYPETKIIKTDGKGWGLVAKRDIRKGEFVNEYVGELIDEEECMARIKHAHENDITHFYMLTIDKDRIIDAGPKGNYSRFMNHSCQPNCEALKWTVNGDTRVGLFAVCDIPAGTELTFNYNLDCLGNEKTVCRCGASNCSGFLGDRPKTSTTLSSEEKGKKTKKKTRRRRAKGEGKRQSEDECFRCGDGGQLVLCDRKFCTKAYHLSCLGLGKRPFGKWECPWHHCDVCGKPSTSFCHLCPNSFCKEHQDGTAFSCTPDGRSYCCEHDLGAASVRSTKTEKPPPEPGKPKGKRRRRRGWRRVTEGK
In words: biochemical.

Where “and” joins values, the source holds several entries; their conditions need not be identical. Equal entries are not always repeated.

`Cc1c(C(=O)NC(CCC2CC2)C(=O)Nc2ccc(C#N)cc2)[nH]c2c1C(=O)CC(C)(C)C2` (stereo not shown) [RK-701]: the “Relative expression of BGLT3” value was 0.1913 and 0.269 and 0.3493 in test [1] (shBGLT3#1 HUDEP-2, 1 μM); 0.5184 and 0.3225 and 0.3815 in test [1] (shBGLT3#2 HUDEP-2, 1 μM); 0.7043 and 0.5474 and 0.4249 in test [1] (shBGLT3#3 HUDEP-2, 1 μM); 4.411 and 3.537 and 2.353 in test [1] (shctrl HUDEP-2, 1 μM). The “Relative expression of γ-globin” value in test [1] (shBGLT3#2 HUDEP-2, 1 μM) is 0.8451 and 0.5898 and 0.9327; in test [1] (shBGLT3#3 HUDEP-2, 1 μM) it was 1.694 and 1.096 and 1.087. Besides, the “Relative expression of β-globin” value in test [1] (shctrl HUDEP-2, 1 μM) is 0.7355 and 1.006 and 0.9971. The “FoldChange KDM1A” value in the test with HUDEP-2 cells is 0.88±0.00. The “α-globin mRNA fold change relative to Gapdh” value is 0.9065 and 1.412 and 0.8941 and 0.7397 and 1.287 and 0.7227 in test [2] (1W, 20 mg/kg i.p.); 1.593 and 1.758 and 1.923 and 1.049 and 1.772 and 1.455 in test [2] (3W, 20 mg/kg i.p.); 2.567 and 2.368 and 2.185 and 2.462 and 1.695 in test [2] (3W, 50 mg/kg i.p.); 1.087 and 1.644 and 1.797 and 1.611 and 0.9245 in test [2] (4W, 50 mg/kg i.p.); 1.653 and 1.045 and 1.677 and 1.091 and 2.038 in test [2] (5W, 20 mg/kg i.p.). For the same compound, the “βh1-globin mRNA fold change relative to Gapdh” value in test [2] (1W, 50 mg/kg i.p.) is 3.072 and 2.378 and 2.567 and 3.629 and 1.934; in test [2] (2W, 50 mg/kg i.p.), 0.5599 and 0.8088 and 0.9568 and 1.059 and 0.8771. In addition, the “β-globin mRNA fold change relative to Gapdh” value is 0.9789 and 1.849 and 1.324 and 1.562 and 1.61 and 1.707 in test [2] (3W, 20 mg/kg i.p.); 2.4941 and 2.468 and 1.829 and 2.814 and 2.31 in test [2] (3W, 50 mg/kg i.p.); 2.2576 and 2.59 and 1.621 and 1.495 and 2.305 in test [2] (4W, 50 mg/kg i.p.); 1.838 and 1.193 and 1.647 and 1.516 and 1.068 in test [2] (5W, 20 mg/kg i.p.). Also, the “Relative expression of BGLT3 RNA” value in test [3] (0.03 μM) is 1.538 and 1.1863 and 2.024; in test [3] (0.1 μM) it was 1.802 and 1.732 and 2.119; in test [3] (0.3 μM), 2.469 and 1.707 and 2.074; in test [3] (1 μM) it was 2.525 and 1.865 and 3.156; in test [3] (3 μM), 1.6605 and 2.017 and 2.232.

With `Nc1ncnc2c1ncn2[C@@H]1O[C@H](CSCC[C@H](N)C(=O)O)[C@@H](O)[C@H]1O` [SAH, S-(5'-Adenosyl)-L-homocysteine, reference compound], at NSD2 (T1150A), the IC50 amounted to 7.18 µM.

Values taken from PMC9837035 (Nature Communications, 2023).
